{"source": "PubChem BioAssay AID463193", "about": "(University of Pittsburgh Molecular Library Screening Center, 2010)", "note": "This is a selection; strong and weak results do not stand in their true shares. Calls of active or inactive are those of the source.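 Rule for the calls: active = percentage of spot-positive cells more than 3 SD above its plate mean, without a fluorescence outlier flag or 80% toxicity; inconclusive = no clear call, values can overlap the other calls; inactive = the rest.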", "data": [{"test": "GFP-LC3 puncta formation changes – imaging, high-content, MEF GFP-LC3, primary screen (AID 463193);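 note: spot-positive cell cutoff set from DMSO-treated cells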", "details": "autophagy, at 10 µM, hits give high values", "values": [{"smiles": "Cc1c(NP(C)(=O)Oc2ccc(C(C)C)cc2)c(=O)n(-c2ccccc2)n1C", "note": "(stereo not drawn)", "% cells with GFP-LC3 spots": "inactive: 8.38%"}, {"smiles": "CC(C)CC(=O)NC(Sc1ccc(Cl)cc1)C(Cl)(Cl)Cl", "note": "(stereo not drawn)", "% cells with GFP-LC3 spots": "inactive: 3.99%"}, {"smiles": "O=[N+]([O-])c1cc([N+](=O)[O-])c(Nc2ccccn2)c([N+](=O)[O-])c1", "% cells with GFP-LC3 spots": "inactive: 1.61%"}, {"smiles": "Oc1ccccc1CNc1ccccn1", "% cells with GFP-LC3 spots": "inactive: 3.06%"}, {"smiles": "O=C(NC(Sc1ccncn1)C(Cl)(Cl)Cl)c1ccccc1", "note": "(stereo not drawn)", "% cells with GFP-LC3 spots": "inactive: 12.7%"}, {"smiles": "Cc1c2non([O-])c-2c(C)[n+](=O)[n+]1[O-]", "% cells with GFP-LC3 spots": "inactive: 1.91%"}, {"smiles": "CP(=O)(Nc1ccccn1)Oc1ccccc1", "note": "(stereo not drawn)", "% cells with GFP-LC3 spots": "inactive: 9.74%"}, {"smiles": "COc1ccccc1OP(C)(=O)Nc1ccc(C)cc1C", "note": "(stereo not drawn)", "% cells with GFP-LC3 spots": "inactive: 1.85%"}, {"smiles": "CCc1ccc(OP(C)(=O)O)cc1", "% cells with GFP-LC3 spots": "inactive: 6.13%"}, {"smiles": "NC(=O)c1cc([N+](=O)[O-])cc([N+](=O)[O-])c1N", "% cells with GFP-LC3 spots": "inactive: 1.89%"}, {"smiles": "Cc1ccc(N/C(=N/P(=O)(N2CCOCC2)N2CCOCC2)N2CCOCC2)cc1", "% cells with GFP-LC3 spots": "inactive: 3.96%"}, {"smiles": "COc1ccccc1OP(=O)(Nc1ccc(C)cn1)Oc1ccccc1OC", "% cells with GFP-LC3 spots": "inactive: 0%"}, {"smiles": "COc1ccc(OP(C)(=O)Nc2ccccn2)cc1", "note": "(stereo not drawn)", "% cells with GFP-LC3 spots": "inactive: 2.96%"}, {"smiles": "CN1CCCC(OC(=O)C(c2ccccc2)c2ccccc2)C1", "note": "(stereo not drawn)", "% cells with GFP-LC3 spots": "inactive: 11.4%"}, {"smiles": "Clc1ccc(Cl)c(NC2=NCC(CBr)S2)c1", "note": "(stereo not drawn)", "% cells with GFP-LC3 spots": "inactive: 14.5%"}, {"smiles": "CN(C)CCOC(=O)C(O)(c1ccccc1)C1CCCC1", "note": "(stereo not drawn)", "% cells with GFP-LC3 spots": "inactive: 0.144%"}, {"smiles": "Cc1nc2ccc3ccccc3c2o1.O=[N+]([O-])c1cc([N+](=O)[O-])c(O)c([N+](=O)[O-])c1", "% cells with GFP-LC3 spots": "inactive: 3.83%"}, {"smiles": "CCN(N=Nc1nonc1N)c1nonc1N", "% cells with GFP-LC3 spots": "inactive: 3.23%"}, {"smiles": "CP(=O)(Nc1ccc(Cl)cc1Cl)Oc1ccccc1", "note": "(stereo not drawn)", "% cells with GFP-LC3 spots": "inactive: 1.85%"}, {"smiles": "CP(=O)(OCCOc1ccccc1)OCCOc1ccccc1", "% cells with GFP-LC3 spots": "inactive: 8.27%"}, {"smiles": "Cc1cc(C)cc(OP(C)(=O)Nc2cccc(C(F)(F)F)c2)c1", "note": "(stereo not drawn)", "% cells with GFP-LC3 spots": "inactive: 0.541%"}, {"smiles": "Cc1cc(SC(NC(=O)c2ccc(F)cc2)C(Cl)(Cl)Cl)ncn1", "note": "(stereo not drawn)", "% cells with GFP-LC3 spots": "inactive: 7.95%"}, {"smiles": "CCOP(=O)(Nc1ccccc1)OCC", "% cells with GFP-LC3 spots": "inactive: 13.7%"}, {"smiles": "COc1ccccc1OP(C)(=O)Nc1ccc(C)c(C)c1", "note": "(stereo not drawn)", "% cells with GFP-LC3 spots": "inactive: 3.94%"}, {"smiles": "COc1ccc(OP(C)(=O)Nc2ccccc2Br)cc1", "note": "(stereo not drawn)", "% cells with GFP-LC3 spots": "inactive: 10.3%"}, {"smiles": "O=[N+]([O-])c1ncn(CCn2ncnc2[N+](=O)[O-])n1", "% cells with GFP-LC3 spots": "inactive: 6.87%"}, {"smiles": "CCOC(=O)c1ccc(NP(C)(=O)Oc2ccc(Cl)cc2)cc1", "note": "(stereo not drawn)", "% cells with GFP-LC3 spots": "inactive: 22.3%"}, {"smiles": "CP(=O)(OC12CC3CC(CC(C3)C1)C2)OC12CC3CC(CC(C3)C1)C2", "% cells with GFP-LC3 spots": "inactive: 3.48%"}]}]}
